IC50 data for 18 compounds are collected here from ChEMBL document CHEMBL2440048, “Novel carvedilol analogues that suppress store-overload-induced Ca2+ release” (J Med Chem, 2013).

This test can be described thus: Inhibition of RyR2 R4496C mutant (unknown origin)-mediated store-overload induced calcium release expressed in HEK293 cells after 8 to 10 mins by fura-2/AM dye-based fluorescence assay. The test is classed as cell-based. Conditions: Homo sapiens.

As to `COc1ccccc1OCCN1CC(CCOc2ccc3c(c2)[nH]c2ccccc23)OCC1=O` (stereo not drawn), the half-maximal inhibitory concentration (IC50) was over 1000 µM. Then `c1ccc2c(c1)[nH]c1cccc(OCC3CN(CCOC4CCCCC4)CCO3)c12` (stereo not drawn), with over 1000 µM.

Regarding `COc1ccccc1OCCN1CC(COc2ccc3[nH]c4ccc(Br)cc4c3c2Br)OCC1=O` (stereo not drawn), the 50% inhibitory concentration (IC50) is over 1000 µM. The result for `COc1ccccc1OCCNCC(O)COc1ccc2c(c1)NC(=O)CC2` (stereo not drawn) reads over 1000 µM; that for `OC(CNCc1cc2ccccc2o1)COc1ccc2c(c1)[nH]c1ccccc12` (stereo not drawn), over 1000 µM; that for `OC(COc1ccc2c(c1)[nH]c1ccccc12)CN1CCOc2ccccc21` (stereo not drawn), over 1000 µM. The result for `COc1ccccc1OCCNCC(O)COc1ccc2[nH]c(=O)ccc2c1` (stereo not drawn) reads over 1000 µM. Then `COc1ccccc1OCCN(C)CC(COc1cccc2c1c1ccccc1n2C)OC` (stereo not drawn), with 11.7 µM; and `CCCCCCCCCCCCCCCCCC(=O)n1c2ccccc2c2c(OCC3CN(CCOc4ccccc4OC)C(=O)CO3)cccc21` (stereo not drawn), with 86.5 µM; and `OC(COc1ccc2c(c1)[nH]c1ccc(F)cc12)CN1CCOc2ccccc21` (stereo not drawn), with over 1000 µM. Consider `CCCCCCCCCCCCCCCCCC(=O)n1c2ccccc2c2c(OCC(O)CNCCOc3ccccc3OC)cccc21` (stereo not drawn), for which the IC50 was over 1000 µM. The result for `COc1ccccc1OCCNCC(O)COc1ccc2[nH]ncc2c1` (stereo not drawn) reads over 1000 µM; that for `COc1cc(Cl)c(Cl)cc1OCCN1CC(COc2cccc3[nH]c4ccccc4c23)OCC1=O` (stereo not drawn), over 1000 µM.

As to `O=C1COC(COc2cccc3[nH]c4ccccc4c23)CN1CCOc1cc(Cl)c(Cl)cc1Cl` (stereo not drawn), the half-maximal inhibitory concentration (IC50) was over 1000 µM. The result for `COc1ccccc1OCC(CO)NC(=O)COc1cccc2[nH]c3ccccc3c12` (stereo not drawn) reads 3.63 µM; that for `Oc1ccc2[nH]c3ccc(Br)cc3c2c1Br`, over 1000 µM.

With `OC(CNCc1nc2ccccc2o1)COc1ccc2c(c1)[nH]c1ccccc12` (stereo not drawn), the IC50 is over 1000 µM. The result for `COc1ccccc1OCCNC(=O)COc1cccc2[nH]c3ccccc3c12` reads 3.55 µM.
